Earlier results, collected in paper PMC9005681, “Use of AD Informer Set compounds to explore validity of novel targets in Alzheimer's disease pathology” (Alzheimer's & Dementia : Translational Research & Clinical …, 2022).

System: SYK
Details: published affinity; ref PubMed 24779514, Probe Miner, Chemical probes portal; cited from earlier work

c1cn2cc(-c3ccc4cn[nH]c4c3)nc(Nc3ccc(N4CCOCC4)cc3)c2n1 [UNC10302678A, Entospletinib (GS-9973)]
Reported on-target biochemical potency, SYK: 7.7 nM
